Experimental data reported in PubChem BioAssay AID2280 (The Scripps Research Institute Molecular Screening Center, 2010).
Only a part is listed here, and it is no random draw. The source made the active and inactive calls.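 The calls were made as follows: active = percent inhibition above a per-plate cutoff, the plate mean of test compounds plus 3 SD (cut at about 30% in these data); inactive = the rest.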

Chains of the proteins cited; added tags and fusions are not shown. Lines headed by an entry give the natural chain unless they say otherwise; changes in a name come on top.
UniProt Q17339: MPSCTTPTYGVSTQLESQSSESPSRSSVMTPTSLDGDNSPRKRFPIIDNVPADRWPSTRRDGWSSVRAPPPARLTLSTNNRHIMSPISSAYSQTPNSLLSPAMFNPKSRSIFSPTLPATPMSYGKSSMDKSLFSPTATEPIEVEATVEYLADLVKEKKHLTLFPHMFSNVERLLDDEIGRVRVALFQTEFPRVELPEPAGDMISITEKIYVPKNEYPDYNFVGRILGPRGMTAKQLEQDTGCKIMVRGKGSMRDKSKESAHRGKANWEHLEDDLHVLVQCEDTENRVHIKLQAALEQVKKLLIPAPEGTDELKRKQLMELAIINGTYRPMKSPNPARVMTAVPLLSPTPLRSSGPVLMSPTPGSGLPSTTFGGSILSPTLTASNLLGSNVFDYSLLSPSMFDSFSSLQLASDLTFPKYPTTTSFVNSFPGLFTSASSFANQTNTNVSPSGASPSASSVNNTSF

Biological target: Female germline-specific tumor suppressor gld-1 (Caenorhabditis elegans) (UniProt Q17339)
Test: small molecules blocking C. elegans GLD-1 RNA recognition – biochemical, fluorescence polarization, primary screen (AID 2280);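 also: 0% = DMSO wells with GLD-1 and probe and 100% = wells lacking GLD-1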
Settings: purified GLD-1 + fluorescein TGE RNA, at 5.96 µM, active compounds read high

SMILES	inhibition
COc1cc(C2NCCC3(OCCO3)C2(C)C)cc(OC)c1OC (stereo unspecified)	inactive: 1.59%
CCOP(=O)(Nc1cccc2ccccc12)OCC	inactive: -2.9%
O=[As](O)(O)c1cccnc1	inactive: -8.25%
COc1cc(C(=O)NCC2(N3CCOCC3)CCCCC2)cc(Cl)c1OC(C)C	inactive: 5.62%
CS(=O)(=O)c1ccc(Cl)c(NC(=O)COC(=O)C(O)(c2ccccc2)c2ccccc2)c1	inactive: 1.61%
O=C(OC1CN2CCC1CC2)c1ccc(Cl)cc1 (stereo unspecified)	inactive: 5.22%
Cc1cccc(OCC(=O)OC2CN3CCC2CC3)c1 (stereo unspecified)	inactive: -4.33%
O=[As](O)(c1cccc(O)c1)c1cccc(O)c1	inactive: -0.79%
CC(=O)c1ccc(N2CC2c2ccncc2)cc1 (stereo unspecified)	inactive: -2.96%
Cc1ccccc1CN(C)C(=O)COC(=O)C(O)(c1ccccc1)c1ccccc1	inactive: -3.2%
C[C@H]1OP(=O)(Oc2ccccc2)C[C@@H]2O[C@@H]21 (stereo partly specified)	inactive: 1.56%
C[C@@H]1C=CCP(=O)(Oc2ccccc2)O1 (stereo partly specified)	inactive: -3.86%
CC(=O)Nc1ccc([As](=O)(O)O)c(O)c1	inactive: 1.66%
CC(=O)Nc1ccc(Oc2c([N+](=O)[O-])cc([N+](=O)[O-])cc2[N+](=O)[O-])cc1	inactive: 6.84%
O=P1(Nc2nc3ccc(Cl)cc3s2)COc2ccccc2O1 (stereo unspecified)	inactive: 0.39%
CCOc1ccc(C2=NCC(CBr)S2)cc1 (stereo unspecified)	inactive: 6.09%
CC(C)(C)C(=O)NC(Sc1ccccc1)C(Cl)(Cl)Cl (stereo unspecified)	inactive: 0.94%
COC(=O)c1cc2c(s1)N=C(c1ccccc1)N(C)P2(=O)N1CCOCC1 (stereo unspecified)	inactive: 5.87%
Cc1ccc(OP(=O)(Nc2ccccn2)Oc2ccc(C)cc2)cc1	inactive: 2%
CC(=O)NC(SC(=S)N(CC(C)C)CC(C)C)C(Cl)(Cl)Cl (stereo unspecified)	inactive: 4.79%
O=C(OC1CN2CCC1CC2)c1ccccc1 (stereo unspecified)	inactive: 2.71%

SMILES	inhibition
CCC(=O)N1C2C3N(C(=O)CC)C1C1N(C(=O)CC)C(C(N1C(=O)CC)N3C(=O)CC)N2C(=O)CC	inactive: 1.04%
CC(NC(=O)COC(=O)C(O)(c1ccccc1)c1ccccc1)c1ccccc1 (stereo unspecified)	inactive: 8.31%
Cc1ccccc1OP(=O)(Nc1ccccn1)Oc1ccccc1C	inactive: 4.75%
CN(C)C(=O)Oc1noc2ccccc12	inactive: 8.91%
O=C(NC1CCS(=O)(=O)C1)NP(=S)(Oc1ccccc1)Oc1ccccc1 (stereo unspecified)	inactive: 4.69%
CCNC(=S)/N=C(\N)N[N+](=O)[O-]	inactive: 6.44%
c1ccc(-c2nn[nH]n2)c(-c2nn[nH]n2)c1	inactive: 2.11%
CCOC(=O)NC(Sc1ccccc1)C(Cl)(Cl)Cl (stereo unspecified)	inactive: 2.28%
Cc1ccc(NP(=O)(Oc2cccc(C)c2)Oc2cccc(C)c2)nc1	inactive: -3.96%
O=[N+]([O-])c1ncn(CCn2cnc([N+](=O)[O-])n2)n1	inactive: 6.81%
CC(=O)NC(SC(=S)N(C)C)C(Cl)(Cl)Cl (stereo unspecified)	inactive: 2.16%
O=[N+]([O-])c1ccc(O)c(/C=N/Nc2ccc([N+](=O)[O-])cc2[N+](=O)[O-])c1	inactive: 5.56%
O=[As](O)(c1ccccc1)c1ccc(O)cc1	inactive: 2.12%
C(Cc1nn[nH]n1)Cc1nn[nH]n1	inactive: 6.56%
Nc1ccc([As](=O)(O)c2ccc([N+](=O)[O-])cc2)cc1	inactive: 2.69%
O=C(OC1CN2CCC1CC2)c1cccc(Cl)c1 (stereo unspecified)	inactive: 3.84%
CN(C)C1(CNC(=O)c2ccc(Cl)c(S(N)(=O)=O)c2)CCCCC1	inactive: -2.1%
O=P(Nc1ccccn1)(c1ccc(Br)cc1)c1ccc(Br)cc1	inactive: 7.24%
O=P(Nc1nc2ccccc2s1)(c1ccccc1)c1ccccc1	inactive: 3.12%
C[C@H]1OP(=O)(Oc2ccccc2)[C@H](O)[C@H](O)[C@H]1N=[N+]=[N-] (stereo partly specified)	inactive: 0.05%
O=P(Nc1nccs1)(c1ccccc1)c1ccccc1	inactive: -1.14%

SMILES	inhibition
CC(C)C(=O)NC(Sc1ccccc1)C(Cl)(Cl)Cl (stereo unspecified)	inactive: 5.42%
c1nnnn1CCn1cnnn1	inactive: 2.27%
Nc1ccc([As](=O)(O)c2ccc(N)cc2)cc1	inactive: 8.07%
C[N+]1=C2C=CC=CC=C2SC12C([N+](=O)[O-])=CC([N+](=O)[O-])=C[C-]2[N+](=O)[O-] (stereo unspecified)	inactive: 5.78%
CCN(/C(=N/P(=O)(N1CCOCC1)N1CCOCC1)N1CCOCC1)c1ccc(OC)cc1	inactive: 7.59%
CC(C)=N/N=C(\N)N[N+](=O)[O-]	inactive: -2.81%
CN(C)C(=O)OCCc1n(C)cc[n+]1C	inactive: -2.33%
CC1CCN(C(=O)Oc2c(Cl)cc(Cl)c3cccnc23)CC1	inactive: 6.66%
COc1ccc(C2=NCC(CBr)S2)cc1 (stereo unspecified)	inactive: 1.5%
CC(=O)N1C2C3N(C(C)=O)C1C1N(C(C)=O)C(C(N1C(C)=O)N3C(C)=O)N2C(C)=O	inactive: 1.3%
O=[N+]([O-])c1cccc2n[nH]nc12	inactive: 2.51%
Cc1ccc(NP(=O)(Oc2ccccc2)Oc2ccccc2)nc1	inactive: 0.44%
O=[N+]([O-])c1cc([N+](=O)[O-])c(CCNc2ccccc2)c([N+](=O)[O-])c1	inactive: 2.5%
CCc1nc2c(n1)c1c(non1O)c1c2no[n+]1[O-]	inactive: 8.2%
CC(C)(C)C(=O)NC(Sc1ccncn1)C(Cl)(Cl)Cl (stereo unspecified)	inactive: -0.95%
O=[N+]([O-])c1ncn(CCn2ncnc2[N+](=O)[O-])n1	inactive: -4.33%
O=[N+]([O-])c1cccc(NC2=NCC(CBr)S2)c1 (stereo unspecified)	inactive: 7.36%
O=C(Nc1cc([As](=O)(O)O)ccc1O)c1ccccc1	inactive: -12%
O=[N+]([O-])c1cc([N+](=O)[O-])c(CCN2CCOCC2)c([N+](=O)[O-])c1	inactive: 5.8%
CCN(N=Nc1nonc1N)c1nonc1N	inactive: 1.33%
CC(=O)Nc1ccc([As](=O)(O)O)cc1	inactive: -3.07%

SMILES	inhibition
O=C(O)c1ccccc1[As](=O)(O)O	inactive: 3.56%
O=P(Nc1nc2ccc(Cl)cc2s1)(c1ccccc1)c1ccccc1	inactive: 1.08%
Cc1cc(SC(NC(=O)c2ccc(F)cc2)C(Cl)(Cl)Cl)ncn1 (stereo unspecified)	inactive: -2.72%
CCOP(=O)(Nc1ccccc1)OCC	inactive: 7.76%
CN(C(=O)Cc1ccc(Cl)c(Cl)c1)[C@H]1CCCC[C@@H]1N1CCCC1	inactive: 1.98%
Cc1ccc(NP(=O)(Oc2ccccc2F)Oc2ccccc2F)nc1	inactive: -3.48%
Nc1cc(N)c2nonc2c1[N+](=O)[O-]	inactive: -5.18%
CC(C)CC(=O)NC(Sc1ccc(Cl)cc1)C(Cl)(Cl)Cl (stereo unspecified)	inactive: -2.18%
Oc1ccccc1CNc1ccccn1	inactive: -3.63%
O=C(NC(Sc1ccncn1)C(Cl)(Cl)Cl)c1ccccc1 (stereo unspecified)	inactive: 1.71%
Cc1c2non([O-])c-2c(C)[n+](=O)[n+]1[O-]	inactive: -2.37%
NC(=O)c1cc([N+](=O)[O-])cc([N+](=O)[O-])c1N	inactive: -7.57%
CN(C(=O)Cc1ccc(Cl)c(Cl)c1)[C@H]1CCCC[C@H]1N1CCCC1	inactive: -0.08%
Cc1ccc(N/C(=N/P(=O)(N2CCOCC2)N2CCOCC2)N2CCOCC2)cc1	inactive: 4.79%
COc1ccccc1OP(=O)(Nc1ccc(C)cn1)Oc1ccccc1OC	inactive: 1.99%
Cc1ccc(OP(=O)(Nc2nccs2)Oc2ccc(C)cc2)cc1	inactive: -0.46%
CN1CCCC(OC(=O)C(c2ccccc2)c2ccccc2)C1 (stereo unspecified)	inactive: -6.76%
Clc1ccc(Cl)c(NC2=NCC(CBr)S2)c1 (stereo unspecified)	inactive: 4.54%
